Source: patent US20110104713A1, “PRODUCTS AND PROCESSES FOR MODULATING PEPTIDE-PEPTIDE BINDING DOMAIN INTERACTIONS” (published 2011)
Residue numbers refer to the chain shown, from its start. Numbers in names are those of the source. Non-standard residues stand in square brackets, D forms with d. No end group written: not given here. pT = C[C@@H](OP(=O)(O)O)[C@H](N)C(=O)O; pS = N[C@@H](COP(=O)(O)O)C(=O)O

B1: Plk-1 Polo-box domain (PBD), residues 326-603 (other)
chain: SIAPSSLDPSNRKPLTVLNKGLENPLPERPREKEEPVVRETGEVVDCHLSDMLQQLHSVNASKPSERGLVRQEEAEDPACIPIFWVSKWVDYSDKYGLGYQLCDNSVGVLFNDSTRLILYNDGDSLQYIERDGTESYLTVSSHPNSLMKKITLLKYFRNYMSEHLLKAGANITPREGDELARLPYLRTWFRTRSAIILHLSNGSVQINFFQDHTKLILCPLMAAVTYIDEKRDFRTYRLSLLEEYGCCKELASRLRYARTMVDKLLSSRSASNRLKAS
B2: mutant Plk1 PBD containing the W414F substitution (other)
chain: B1 chain with W89F

Columns and labels:
Assay in all cases: isothermal titration calorimetry
[1] = target: T1, PoloBoxtide-9N (Artificial Sequence)
T1 peptide: MAGPMQS[pT]NLNGAKK

[2] = target: T2, PoloBoxtide-8pS (Artificial Sequence)
T2 peptide: MAGPMQS[pS]PLNGAYKK

[3] = target: T3, PoloBoxtide-optimal, MAGPMQ-S-pT-P-LNGAKK (Artificial Sequence)
T3 peptide: MAGPMQS[pT]PLNGAKK

Row | Binder | fold increase in Kd against PoloBoxtide-optimal [1] | fold drop in affinity against PoloBoxtide-optimal [2] | Kd [3]
1 | B1 | > 5 fold | 7 fold | 
2 | B2 |  |  | > 100 µM
